Source: PubChem BioAssay (ICCB-Longwood Screening Facility, Harvard Medical School)
GIV-Gai inh: inhibitors of GIV GBA-motif binding to rat Galpha-i3; P08753; Galpha-i3/FITC-GIV peptide fluorescence polarization, 90 min; hits give low values; scaled: aluminum fluoride 0%, vehicle 100%; percent of control (FP), % (no concentration beside the values); 210,000 compounds, 0.42% hits;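 active means replicate mean at 85% of control or lower, very high polarization wells dropped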;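 further: wells of about 15 µL received 100 nL stock; the first replicate is given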
HCMV NEC inh: disrupts HCMV UL50-UL53 complex binding; AID 1918969; inhibition, % (test concentration not listed); 190,000 compounds, 0.15% hits; HTRF UL50-UL53 interaction, normalized percent inhibition; in the data active means inhibition above about 27%, passing the limit was not always enough
GIV-Gai FP conf: GIV-Galpha-i3 inhibition, FP confirmation; shares compounds with GIV-Gai inh; FITC-GIV peptide binding to Galphai3, fluorescence polarization; stronger effect = lower value; fluorescence polarization, mP at 100 µM; 580 compounds, 38% hits; AID 1259350;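 active means inhibition score of 15 or more, meaning 100 minus mean polarization as percent of control over three replicates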
GIV-Gai AS conf: confirmation of inhibitors of GIV binding to human Galpha-i3 | shares compounds with GIV-Gai inh | AlphaScreen Galphai3-GIV binding, purified proteins, 90 min; stronger effect = lower value | AlphaScreen counts at 100 µM | 580 compounds, 39% hits;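 active means inhibition score at or above a set limit, where the score is 100 minus the three-replicate mean percent of control signal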
Numbers stand for hits; i = inactive; nt = not tested or not shown; ! = not confirmed by another sample. Rows were chosen to be rich in hits. Some 0.46% of all compounds tested hit in one or more screens of this group.

SMILES	GIV-Gai inh	HCMV NEC inh	GIV-Gai FP conf	GIV-Gai AS conf
Cc1ccsc1C1C=C(c2cccc(Br)c2)Nc2ncnn21 (stereo not drawn)	81	nt	47	i
CCc1ccc(C2=CC(c3sccc3C)n3ncnc3N2)cc1 (stereo not drawn)	i	nt	nt	nt
CN(C(=S)NCc1ccccc1)c1ccc(O)cc1	nt	i	nt	nt
COc1ccccc1-c1nc2c3ccccc3ncn2n1	i	i	nt	nt
COc1cccc(-c2nc3c4ccccc4ncn3n2)c1	78	i	i	i
CCOc1ccc(-c2nonc2NC(=O)C(c2ccccc2)c2ccccc2)cc1	i	i	nt	nt
O=C1/C(=C/c2ccc(-c3cc(Cl)ccc3Cl)o2)C=C(c2ccccc2)N1c1cccc([N+](=O)[O-])c1	i	nt	nt	nt
CC(C)=NNC(=O)Cc1c[nH]c2cccc(OCC(O)CNC(C)(C)C)c12 (stereo not drawn)	i	i	i	i
CC(C)OC(=O)c1cc2c(OCC(O)CNC(C)(C)C)cccc2[nH]1 (stereo not drawn)	nt	i	nt	nt
CCn1cc(/C=C2/C(=O)N(c3ccccc3)N=C2C)c2ccccc21	nt	i	nt	nt
CCn1cc(/C=C2/C(=O)N(c3ccccc3)c3ccccc32)c2ccccc21	53	nt	i	i
Cc1ccc(C(C(=O)Nc2c(C)n(C)n(-c3ccccc3)c2=O)N(Cc2ccco2)C(=O)Cc2c[nH]c3ccccc23)cc1 (stereo not drawn)	i	i	nt	nt
Cc1ccc(C)c(NC(=O)c2cccc(S(=O)(=O)N3CCCC3)c2)c1	nt	i	nt	nt
Cc1ccc(C(=O)Nc2ccc(S(=O)(=O)O)c3cc(S(=O)(=O)O)cc(S(=O)(=O)O)c23)cc1NC(=O)c1cccc(NC(=O)Nc2cccc(C(=O)Nc3cc(C(=O)Nc4ccc(S(=O)(=O)O)c5cc(S(=O)(=O)O)cc(S(=O)(=O)O)c45)ccc3C)c2)c1	76!	i	61	12181
CCOc1ccc(-c2cc(NC(=O)Cn3ncc4c(=O)oc5ccc(C)cc5c43)on2)cc1	i	i	nt	nt
O=C(CSC1=NC(=O)C(Cc2ccccc2)C(=O)N1)NCc1ccccc1 (stereo not drawn)	nt	i	nt	nt
CCn1c2c(c3ccccc31)CN(C(=O)C1CCC1)CC2	51	nt	20	14471
CCn1c(C)c(CN2CCC(C(=O)N3CCCC3)CC2)c2ccccc21	i	nt	nt	nt
O=C1CC(c2n[nH]c(=S)o2)CN1c1ccc(F)c(Cl)c1 (stereo not drawn)	i	i	nt	nt
CCOc1ccc(C2C3CN(CC)CC=C3C(C#N)=C(N)C2(C#N)C#N)cc1 (stereo not drawn)	i	nt	nt	nt
CCCN1CCC2(CC1)C1CN(CCC)CC=C1C(C#N)=C(N)C2(C#N)C#N (stereo not drawn)	i	i	i	i
CC(=O)N1CCc2c(sc3c2c(=O)n(-c2ccccc2)c(=O)n3Cc2ccccc2C#N)C1	i	i	nt	nt
O=C1C=CC(=O)N1c1ccccc1C(F)(F)F	nt	i	nt	nt
CC(C)Nc1ncnc2scc(-c3ccccc3)c12	i	i	nt	nt
O=C(O)c1cccc(Nc2ncnc3scc(-c4ccccc4)c23)c1	72	i	i	i
SMILES	GIV-Gai inh	HCMV NEC inh	GIV-Gai FP conf	GIV-Gai AS conf
Nc1ccc2nsnc2c1	46	96	5.4	3926
Nc1nnc(-c2ccc3nsnc3c2)o1	i	i	nt	nt
Oc1ccc(NCc2ccccc2OCc2ccc(Cl)cc2)cc1	i	i	nt	nt
CCOc1cc(CNc2ccc(O)cc2)ccc1OCc1ccc(Cl)cc1	76	i	61	10130
CCCn1c(=O)c(=O)[nH]c2c(=O)oc3ccccc3c21	i	i	nt	nt
COCCn1cc(C(=O)N2CCC(Cc3ccccc3)CC2)c2c3ccccc3n(C)c2c1=O	i	i	nt	nt
CC(C)C(NS(=O)(=O)c1cccs1)C(=O)NCc1cccnc1 (stereo not drawn)	i	i	nt	nt
CCCOc1ccc(CNC(=O)C(NS(=O)(=O)c2cccs2)C(C)C)cc1 (stereo not drawn)	84	nt	i	i
O=C(O)c1cc2c3c(c1)C1C=CCC1C(c1ccccc1F)N3CC1CC=CC21 (stereo not drawn)	74	i	21	3685
O=C(O)c1cc2c3c(c1)C1C=CCC1C(c1ccc(F)cc1)N3CC1CC=CC21 (stereo not drawn)	i	i	nt	nt
O=C(O)c1cc2c3c(c1)C1C=CCC1C(c1cccc([N+](=O)[O-])c1)N3CC1CC=CC21 (stereo not drawn)	i	i	nt	nt
O=C(O)c1cc2c3c(c1)C1C=CCC1C(c1ccccc1)N3CC1CC=CC21 (stereo not drawn)	81	i	47	7304
O=[N+]([O-])c1cc(S(=O)(=O)O)cc2c1-c1c(cc(S(=O)(=O)O)cc1[N+](=O)[O-])C2	i	nt	i	17742
O=C1c2cc(S(=O)(=O)N3CCCCC3)cc([N+](=O)[O-])c2-c2c1cc(S(=O)(=O)N1CCCCC1)cc2[N+](=O)[O-]	i	nt	nt	nt
O=C(OCc1cc(=O)n2cc(Br)ccc2n1)c1ccc2c(=O)n3c(nc2c1)CCC3	nt	i	nt	nt
CCN(CC)C(=O)/C=C/c1ccc2c(c1)OCO2	i	nt	nt	nt
CC(C)(O)C(=O)/C=C/c1ccc2c(c1)OCO2	84	i	i	27857
N#CC1=C(SCC(=O)Nc2ccccc2)NC(=O)CC1c1ccc(Br)cc1 (stereo not drawn)	i	i	nt	nt
C/C(=N\NC(=O)COc1ccccc1)C1C(=O)c2ccccc2C1=O	i	i	nt	nt
CCOC(=O)C1=C(C)N=c2s/c(=C\c3cc([N+](=O)[O-])ccc3N3CCOCC3)c(=O)n2C1c1ccccc1 (stereo not drawn)	i	i	nt	nt
CCOC(=O)C1=C(C)N=c2s/c(=C\c3cc([N+](=O)[O-])ccc3N3CCOCC3)c(=O)n2C1c1cccc(OC)c1 (stereo not drawn)	i	i	i	i
COCCNC(=O)c1nn(C)c2c1CSc1ccc(Cl)cc1-2	i	i	nt	nt
CC(C)Cc1cc(-c2nn3c(-c4ccccc4F)nnc3s2)n[nH]1	i	i	nt	nt
Cn1cccc1C(=O)C(=O)N1CCCc2ccccc21	i	nt	nt	nt
O=C1C(=Cc2cccn2-c2ccc(O)cc2)C(=O)c2ccccc21	72	nt	6.1	19282
SMILES	GIV-Gai inh	HCMV NEC inh	GIV-Gai FP conf	GIV-Gai AS conf
O=C(O)c1cccc(-n2cccc2C=C2C(=O)c3ccccc3C2=O)c1	i	nt	nt	nt
CC(=O)N/N=C/c1ccccc1	i	i	nt	nt
CC(=O)N/N=C/c1cc(C(C)C)cc(/C=N/NC(C)=O)c1O	81	i	i	i
Cc1ccc(S(=O)(=O)N2CCN(C(=O)COC(=O)C3=COCCO3)CC2)c(C)c1	nt	i	nt	nt
O=C(Nc1cccc2nsnc12)c1nc2ccccc2nc1N1CCOCC1	28	i	i	i
O=C(Nc1cccc2nsnc12)c1nc2ccccc2nc1N1CCCC1	i	i	nt	nt
CC(=O)c1cc2c(cc1NC(=O)c1cc3nc(-c4ccc(C)cc4)cc(C(F)(F)F)n3n1)OCO2	i	nt	nt	nt
CCCCCn1c(=O)c2sccc2n2c(CCC(=O)N3CCC(N4CCCCC4)CC3)nnc12	i	i	nt	nt
Cc1ccc(C)n1Cc1ccc(C(=O)O)cc1	33	70	48	3139
Cc1cc(C)n(Cc2ccc(C(=O)O)cc2)n1	nt	i	nt	nt
Cc1ccn(CCC(=O)O)n1	i	i	nt	nt
Cc1ccc(C)n1CCC(=O)O	71	i	i	3780
